Laboratory results taken from ChEMBL document CHEMBL1833876 (J Med Chem, 2011).

Test system: R2
Assay: Antiproliferative activity against chinese hamster R2 cells expressing human PCFT assessed as inhibition of colony formation after 10 to 14 days
Type: functional, cell-based, Cricetulus griseus

Compound `Nc1nc2[nH]cc(CCc3ccc(C(=O)N[C@@H](CCC(=O)O)C(=O)O)cc3)c2c(=O)[nH]1` [PEMETREXED] has an IC50 of 4.94 nM.
